{"sequences": {"note": "Chains of the proteins cited; added tags and fusions are not shown.", "UniProt Q932Y6, whole entry": "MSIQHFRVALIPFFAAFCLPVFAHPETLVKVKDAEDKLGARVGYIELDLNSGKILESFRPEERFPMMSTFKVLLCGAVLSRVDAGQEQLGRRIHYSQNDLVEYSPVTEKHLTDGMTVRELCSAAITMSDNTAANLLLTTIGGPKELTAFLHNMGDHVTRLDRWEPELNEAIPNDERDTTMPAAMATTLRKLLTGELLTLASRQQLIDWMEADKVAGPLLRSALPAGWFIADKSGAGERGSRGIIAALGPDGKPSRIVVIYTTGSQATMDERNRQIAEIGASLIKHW"}, "source": "BindingDB's records for doi:10.7270/Q2XS5T0R", "about": "(The Scripps Research Institute Molecular Screening Center, 2012)", "biological_target": "Beta-lactamase (Pseudomonas aeruginosa, UniProt Q932Y6)"}
{"molecule": "O=c1c(Cl)c(Cl)cnn1Cc1nnc(-c2ccccc2Br)o1", "values": [{"measurement": "IC50", "value": "> 49.8", "unit": "µM"}]}
